# Test results reported in ChEMBL document CHEMBL6096698, “Discovery of a Selective and Orally Bioavailable RET Degrader with Effectiveness in Various Mutations” (J Med Chem, 2025).
# System: BaF3
# Assay: PROTAC activity at CRBN/KIF5B-RET G810C mutant (unknown origin) expressed in mouse BaF3 cells assessed as fold change in RET level at 20 nM incubated for 24 hrs by quantitative proteomic analysis relative to control
# Assay type: cell-based
compound,measurement,value
COc1ccc(CN2C3CC2CN(c2ccc(-c4cc(N5CCC(N6CCN(CCCC#Cc7cccc8c7CN(C7CCC(=O)NC7=O)C8=O)CC6)CC5)cn5ncc(C#N)c45)cn2)C3)cn1 (stereo unspecified),fold change (FC),< 0.22
